Tested on: hepatic tumor
Assay: Paper example: CS-MRI guided chemical ablation of a hepatic tumor
Conditions: slow injection under CS-MRI
Protocol: An MR-compatible needle is advanced into the lesions to introduce the ablation agent.
(§1) A patient presents for ethanol ablation therapy of a hepatic tumor. The patient is prepared by placement on the MRI scanner platform and the spectrometer is calibrated for ^13C-labeled ethanol using standard T1 and T2-weighted imaging. An MR-compatible needle is advanced into the lesions to introduce the ablation agent. Dynamic two-dimensional, chemical shift MRI is performed during the slow injection of ^13C-labeled ethanol. The distribution of ^13C-labeled ethanol is then directly visualized using chemical shift MRI.
as §1, with “hot saline” for “ethanol”, “^23Na-labeled saline” for “^13C-labeled ethanol”, “^23Na-labeled saline.” for “^13C-labeled ethanol.”

Substance: ^13C-labeled acetic acid
- damage to surrounding tissues: without damage to surrounding tissues
